Assay results taken from article PMC10009755, “Discovery and Characterization of BAY-805, a Potent and Selective Inhibitor of Ubiquitin-Specific Protease USP21” (Journal of Medicinal Chemistry, 2023).
pIC50: −log10 of the molar value.

Sequences of proteins named here, by UniProt entry; tags and fusion partners are left off. A change or cut given only in a name is not applied to a line headed by its entry. Residues count along the entry.
UniProt Q6IQ55, whole entry: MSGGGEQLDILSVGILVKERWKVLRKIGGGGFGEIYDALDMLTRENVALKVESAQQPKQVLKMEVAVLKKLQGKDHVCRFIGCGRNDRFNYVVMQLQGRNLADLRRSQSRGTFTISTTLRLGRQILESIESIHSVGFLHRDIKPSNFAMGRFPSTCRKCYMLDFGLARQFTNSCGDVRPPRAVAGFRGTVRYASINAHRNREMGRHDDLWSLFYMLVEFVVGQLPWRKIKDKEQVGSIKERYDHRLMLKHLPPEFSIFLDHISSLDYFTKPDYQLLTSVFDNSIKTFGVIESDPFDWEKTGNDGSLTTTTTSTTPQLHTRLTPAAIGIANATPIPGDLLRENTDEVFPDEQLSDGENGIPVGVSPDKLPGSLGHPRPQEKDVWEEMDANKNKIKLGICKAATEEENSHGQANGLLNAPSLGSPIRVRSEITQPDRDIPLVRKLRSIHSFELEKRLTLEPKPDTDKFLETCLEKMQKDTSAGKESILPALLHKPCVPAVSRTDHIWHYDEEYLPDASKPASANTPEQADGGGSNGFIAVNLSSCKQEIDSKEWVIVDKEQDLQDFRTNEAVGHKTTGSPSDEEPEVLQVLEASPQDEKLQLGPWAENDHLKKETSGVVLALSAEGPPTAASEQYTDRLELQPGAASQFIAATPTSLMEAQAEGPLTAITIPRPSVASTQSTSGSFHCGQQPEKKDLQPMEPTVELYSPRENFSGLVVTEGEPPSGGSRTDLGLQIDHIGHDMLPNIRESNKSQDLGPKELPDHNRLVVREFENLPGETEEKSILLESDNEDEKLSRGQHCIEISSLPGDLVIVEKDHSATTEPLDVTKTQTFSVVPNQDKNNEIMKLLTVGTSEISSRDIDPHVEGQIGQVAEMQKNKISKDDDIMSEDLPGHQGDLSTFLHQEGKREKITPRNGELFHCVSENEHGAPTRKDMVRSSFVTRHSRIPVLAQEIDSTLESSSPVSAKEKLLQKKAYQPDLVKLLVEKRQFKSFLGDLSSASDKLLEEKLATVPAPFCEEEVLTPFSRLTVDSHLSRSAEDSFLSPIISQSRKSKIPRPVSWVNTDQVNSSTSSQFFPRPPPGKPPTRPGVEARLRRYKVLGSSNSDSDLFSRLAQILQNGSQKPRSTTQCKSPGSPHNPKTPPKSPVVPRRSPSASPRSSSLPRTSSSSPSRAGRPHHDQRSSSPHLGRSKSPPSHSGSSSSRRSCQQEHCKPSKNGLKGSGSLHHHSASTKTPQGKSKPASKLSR
UniProt Q9HBH9: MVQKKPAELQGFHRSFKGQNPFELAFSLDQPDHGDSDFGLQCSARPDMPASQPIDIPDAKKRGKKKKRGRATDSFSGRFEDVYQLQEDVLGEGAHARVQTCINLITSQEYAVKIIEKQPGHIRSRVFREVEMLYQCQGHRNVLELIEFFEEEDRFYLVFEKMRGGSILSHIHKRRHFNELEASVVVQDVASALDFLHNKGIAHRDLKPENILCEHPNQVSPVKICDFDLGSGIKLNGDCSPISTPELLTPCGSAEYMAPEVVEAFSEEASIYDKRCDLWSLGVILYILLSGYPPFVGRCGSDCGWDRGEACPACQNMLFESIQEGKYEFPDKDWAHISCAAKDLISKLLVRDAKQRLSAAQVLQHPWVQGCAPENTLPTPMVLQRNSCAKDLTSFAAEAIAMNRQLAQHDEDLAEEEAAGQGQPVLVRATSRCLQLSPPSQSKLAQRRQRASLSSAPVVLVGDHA
UniProt Q06418, 41-890: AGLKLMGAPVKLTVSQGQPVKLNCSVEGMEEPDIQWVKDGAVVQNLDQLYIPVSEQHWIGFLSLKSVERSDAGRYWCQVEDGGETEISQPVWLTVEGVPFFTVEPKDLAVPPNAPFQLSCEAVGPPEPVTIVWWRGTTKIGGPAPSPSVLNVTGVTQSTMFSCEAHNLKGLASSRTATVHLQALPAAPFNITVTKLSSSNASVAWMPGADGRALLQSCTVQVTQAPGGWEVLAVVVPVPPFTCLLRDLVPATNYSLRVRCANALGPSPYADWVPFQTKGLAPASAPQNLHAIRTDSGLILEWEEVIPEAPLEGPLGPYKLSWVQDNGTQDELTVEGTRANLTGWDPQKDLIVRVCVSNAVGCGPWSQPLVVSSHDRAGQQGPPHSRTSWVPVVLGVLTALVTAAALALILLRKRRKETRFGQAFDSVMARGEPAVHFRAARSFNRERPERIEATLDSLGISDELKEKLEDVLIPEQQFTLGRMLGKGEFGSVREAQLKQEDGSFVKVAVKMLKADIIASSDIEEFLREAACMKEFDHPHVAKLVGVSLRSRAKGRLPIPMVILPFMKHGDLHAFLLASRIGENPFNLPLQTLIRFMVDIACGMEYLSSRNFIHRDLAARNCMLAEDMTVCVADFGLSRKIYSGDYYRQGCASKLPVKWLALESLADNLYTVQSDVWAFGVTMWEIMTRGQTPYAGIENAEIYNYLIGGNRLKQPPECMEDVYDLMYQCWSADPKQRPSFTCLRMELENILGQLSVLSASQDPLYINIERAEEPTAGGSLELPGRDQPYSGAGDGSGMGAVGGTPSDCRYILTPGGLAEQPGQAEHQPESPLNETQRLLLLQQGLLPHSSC
UniProt Q92847, whole entry: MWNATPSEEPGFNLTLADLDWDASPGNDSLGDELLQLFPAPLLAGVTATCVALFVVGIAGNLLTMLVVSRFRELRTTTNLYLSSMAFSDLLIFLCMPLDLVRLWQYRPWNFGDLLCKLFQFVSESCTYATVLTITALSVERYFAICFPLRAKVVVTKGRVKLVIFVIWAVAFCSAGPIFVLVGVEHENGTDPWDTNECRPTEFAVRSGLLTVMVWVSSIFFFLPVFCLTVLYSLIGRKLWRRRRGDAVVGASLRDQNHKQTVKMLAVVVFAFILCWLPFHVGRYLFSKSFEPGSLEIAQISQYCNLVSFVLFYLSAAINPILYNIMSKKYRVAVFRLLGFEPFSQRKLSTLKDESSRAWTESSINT
UniProt P50750, whole entry: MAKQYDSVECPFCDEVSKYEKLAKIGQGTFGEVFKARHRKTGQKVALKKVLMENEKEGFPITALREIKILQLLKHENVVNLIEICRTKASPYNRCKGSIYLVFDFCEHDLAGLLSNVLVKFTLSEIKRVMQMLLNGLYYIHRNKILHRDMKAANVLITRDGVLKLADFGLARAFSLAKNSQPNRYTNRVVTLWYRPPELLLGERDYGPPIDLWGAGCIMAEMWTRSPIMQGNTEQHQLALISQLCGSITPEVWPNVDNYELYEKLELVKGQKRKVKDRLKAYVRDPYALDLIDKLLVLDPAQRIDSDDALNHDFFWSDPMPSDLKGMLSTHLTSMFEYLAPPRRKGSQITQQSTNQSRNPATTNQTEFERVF
UniProt P11802: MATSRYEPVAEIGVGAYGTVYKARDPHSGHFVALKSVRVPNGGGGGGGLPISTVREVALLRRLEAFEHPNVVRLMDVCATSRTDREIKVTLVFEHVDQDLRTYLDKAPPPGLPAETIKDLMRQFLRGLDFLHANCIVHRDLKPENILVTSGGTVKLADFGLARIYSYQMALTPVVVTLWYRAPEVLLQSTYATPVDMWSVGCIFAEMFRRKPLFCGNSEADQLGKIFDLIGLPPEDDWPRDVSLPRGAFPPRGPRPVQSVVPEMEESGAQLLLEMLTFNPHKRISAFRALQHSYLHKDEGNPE
UniProt P40818: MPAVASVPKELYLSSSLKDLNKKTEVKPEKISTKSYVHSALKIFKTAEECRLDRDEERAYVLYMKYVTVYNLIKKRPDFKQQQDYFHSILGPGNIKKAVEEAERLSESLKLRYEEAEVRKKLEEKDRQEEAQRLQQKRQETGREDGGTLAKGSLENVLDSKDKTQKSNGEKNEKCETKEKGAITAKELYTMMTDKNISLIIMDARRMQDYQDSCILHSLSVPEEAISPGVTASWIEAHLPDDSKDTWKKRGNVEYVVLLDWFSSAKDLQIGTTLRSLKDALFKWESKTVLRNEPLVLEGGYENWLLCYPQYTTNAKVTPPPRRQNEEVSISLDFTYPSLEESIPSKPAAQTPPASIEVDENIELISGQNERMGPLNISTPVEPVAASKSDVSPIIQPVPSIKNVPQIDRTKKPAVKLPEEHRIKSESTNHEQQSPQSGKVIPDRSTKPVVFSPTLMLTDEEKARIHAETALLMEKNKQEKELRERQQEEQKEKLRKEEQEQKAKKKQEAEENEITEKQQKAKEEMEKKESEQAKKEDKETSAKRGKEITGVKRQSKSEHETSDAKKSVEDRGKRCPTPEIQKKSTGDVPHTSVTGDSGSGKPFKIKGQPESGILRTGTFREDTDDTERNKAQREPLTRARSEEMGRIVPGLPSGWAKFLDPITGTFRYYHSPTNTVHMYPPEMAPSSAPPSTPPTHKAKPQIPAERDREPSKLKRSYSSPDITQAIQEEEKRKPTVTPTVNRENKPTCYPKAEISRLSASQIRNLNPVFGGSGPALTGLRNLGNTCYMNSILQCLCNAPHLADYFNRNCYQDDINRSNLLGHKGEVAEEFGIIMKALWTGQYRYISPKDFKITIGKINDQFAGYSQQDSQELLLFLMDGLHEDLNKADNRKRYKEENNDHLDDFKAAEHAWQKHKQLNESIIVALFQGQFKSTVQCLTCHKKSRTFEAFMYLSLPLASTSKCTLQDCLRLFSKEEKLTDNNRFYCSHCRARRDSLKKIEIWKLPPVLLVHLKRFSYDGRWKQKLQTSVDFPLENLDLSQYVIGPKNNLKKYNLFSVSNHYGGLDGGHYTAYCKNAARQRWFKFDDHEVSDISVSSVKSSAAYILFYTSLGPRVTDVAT
UniProt P51956: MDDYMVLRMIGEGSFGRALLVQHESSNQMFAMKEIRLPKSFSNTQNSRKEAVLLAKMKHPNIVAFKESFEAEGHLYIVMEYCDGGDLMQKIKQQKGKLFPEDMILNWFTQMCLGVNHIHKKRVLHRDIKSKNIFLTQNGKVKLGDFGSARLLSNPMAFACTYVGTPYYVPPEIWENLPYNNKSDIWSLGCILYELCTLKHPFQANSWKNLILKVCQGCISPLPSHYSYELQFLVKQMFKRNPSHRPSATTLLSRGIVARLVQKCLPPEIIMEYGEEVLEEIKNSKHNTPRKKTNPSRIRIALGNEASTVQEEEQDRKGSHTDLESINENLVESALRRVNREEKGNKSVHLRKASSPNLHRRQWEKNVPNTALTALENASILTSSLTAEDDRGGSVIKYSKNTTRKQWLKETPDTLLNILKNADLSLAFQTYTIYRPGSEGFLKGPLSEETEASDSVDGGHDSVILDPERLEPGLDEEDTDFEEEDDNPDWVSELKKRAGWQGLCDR
UniProt Q9Y463, whole entry: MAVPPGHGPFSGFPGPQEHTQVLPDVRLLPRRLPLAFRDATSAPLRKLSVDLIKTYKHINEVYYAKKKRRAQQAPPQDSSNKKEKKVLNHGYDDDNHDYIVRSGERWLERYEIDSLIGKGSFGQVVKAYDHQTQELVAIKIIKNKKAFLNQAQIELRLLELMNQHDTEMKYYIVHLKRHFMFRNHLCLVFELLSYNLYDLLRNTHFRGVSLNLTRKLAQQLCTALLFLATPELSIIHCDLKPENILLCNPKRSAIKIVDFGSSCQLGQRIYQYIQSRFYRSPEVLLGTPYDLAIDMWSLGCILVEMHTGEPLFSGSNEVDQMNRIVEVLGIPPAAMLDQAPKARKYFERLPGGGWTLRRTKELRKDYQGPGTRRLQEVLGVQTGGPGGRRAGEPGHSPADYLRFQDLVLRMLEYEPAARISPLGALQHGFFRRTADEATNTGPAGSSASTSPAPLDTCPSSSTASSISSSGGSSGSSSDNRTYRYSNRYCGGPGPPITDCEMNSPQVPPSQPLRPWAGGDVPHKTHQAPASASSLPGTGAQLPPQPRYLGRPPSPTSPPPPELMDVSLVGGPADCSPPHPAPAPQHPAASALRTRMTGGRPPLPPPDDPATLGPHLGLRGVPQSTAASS

Legend:
PRK2(h) = PRK2(h) (Homo sapiens, UniProt Q16513); assay: biochemical
TTBK2(h) = TTBK2(h) (Homo sapiens, UniProt Q6IQ55); assay: biochemical
Lipoxygenase 15-LO = details: 10 µM
JAK3(h) = JAK3(h) (Homo sapiens, UniProt P52333); assay: biochemical
Mnk2(h) = Mnk2(h) (Homo sapiens, UniProt Q9HBH9); assay: biochemical
MLK1(h) = MLK1(h) (Homo sapiens, UniProt P80192); assay: biochemical
six cysteine proteases = details: all six cysteine proteases
Rse(h) = Rse(h) (Homo sapiens, UniProt Q06418); assay: biochemical
USP9X = USP9X (Homo sapiens, UniProt Q93008); assay: biochemical; details: read-out: Activity (% Control)
[1] = target: Growth Hormone Secretagogue (GHS, Ghrelin) (Homo sapiens, UniProt Q92847); assay: biochemical; details: read-out: % Inh.
Flt4(h) = Flt4(h) (Homo sapiens, UniProt P35916); assay: biochemical
ALK2(h) = ALK2(h) (Homo sapiens, UniProt Q04771); assay: biochemical
VRK1(h) = VRK1(h) (Homo sapiens, UniProt Q99986); assay: biochemical
CDK9/cyclin T1(h) = CDK9/cyclin T1(h) (Homo sapiens, UniProt P50750); assay: biochemical
TAO2(h) = TAO2(h) (Homo sapiens, UniProt Q9UL54); assay: biochemical
Pim-2(h) = Pim-2(h) (Homo sapiens, UniProt Q9P1W9); assay: biochemical
CDK4/cyclinD3(h) = CDK4/cyclinD3(h) (Homo sapiens, UniProt P11802); assay: biochemical
PDK1(h) = PDK1(h) (Homo sapiens, UniProt O15530); assay: biochemical
MEKK3(h) = MEKK3(h) (Homo sapiens, UniProt Q99759); assay: biochemical
CaMKIgamma(h) = CaMKIgamma(h) (Homo sapiens, UniProt Q96NX5); assay: biochemical
Fes(h) = Fes(h) (Homo sapiens, UniProt P07332); assay: biochemical
PKG1beta(h) = PKG1beta(h) (Homo sapiens, UniProt Q13976); assay: biochemical
Bradykinin B2 = Bradykinin B2 (Homo sapiens, UniProt P30411); assay: biochemical; details: read-out: % Inh.
USP8 = USP8 (Homo sapiens, UniProt P40818); assay: biochemical; details: read-out: Activity (% Control)
AMSH-LP = AMSH-LP (Homo sapiens, UniProt Q96FJ0); assay: biochemical; details: read-out: Activity (% Control)
TrkC(h) = TrkC(h) (Homo sapiens, UniProt Q16288); assay: biochemical
NEK3(h) = NEK3(h) (Homo sapiens, UniProt P51956); assay: biochemical
CDK2/cyclinA(h) = CDK2/cyclinA(h) (Homo sapiens, UniProt P24941); assay: biochemical
SAPK2b(h) = SAPK2b(h) (Homo sapiens, UniProt Q15759); assay: biochemical
SIK2(h) = SIK2(h) (Homo sapiens, UniProt Q9H0K1); assay: biochemical
[2] = tested on: panel of 10 individual USPs; assay: SGC USP selectivity screen, whole panel; type: biochemical
UCHL5 = UCHL5 (Homo sapiens, UniProt Q9Y5K5); assay: biochemical; details: read-out: Activity (% Control)
ALK4(h) = ALK4(h) (Homo sapiens, UniProt P36896); assay: biochemical
GRK6(h) = GRK6(h) (Homo sapiens, UniProt P43250); assay: biochemical
DYRK1B(h) = DYRK1B(h) (Homo sapiens, UniProt Q9Y463); assay: biochemical
EphA2(h) = EphA2(h) (Homo sapiens, UniProt P29317); assay: biochemical
OTUD1 = OTUD1 (Homo sapiens, UniProt Q5VV17); assay: biochemical; details: read-out: Activity (% Control)
PDGFRalpha(h) = PDGFRalpha(h) (Homo sapiens, UniProt P16234); assay: biochemical
GSK3alpha(h) = GSK3alpha(h) (Homo sapiens, UniProt P49840); assay: biochemical
Fgr(h) = Fgr(h) (Homo sapiens, UniProt P09769); assay: biochemical
PKCgamma(h) = PKCgamma(h) (Homo sapiens, UniProt P05129); assay: biochemical
[3] = tested on: 44 individual DUB targets

CC(C)C[C@H](NC(=O)C1(C(F)(F)F)CCCCC1)C(=O)Nc1nnc(Cc2ccc(C#N)cc2)s1 [Compound 22, CC(C)C[C@H](NC(=O)C1(CCCCC1)C(F)(F)F)C(=O)Nc2nnc(Cc3ccc(cc3)C#N)s2]
inhibition at 10 µM (PRK2(h)): 9.51%
inhibition at 10 µM (TTBK2(h)): -1.36%
% Inh. (Lipoxygenase 15-LO): -3%
inhibition at 10 µM (JAK3(h)): 3.97%
inhibition at 10 µM (Mnk2(h)): 28.7%
inhibition at 10 µM (MLK1(h)): -1.43%
pIC50 (six cysteine proteases): < 4.70
inhibition at 10 µM (Rse(h)): 13.6%
remaining activity at 1 µM (USP9X): 101%
remaining activity at 10 µM (USP9X): 99%
inhibition at 10 µM [1]: 8%
inhibition at 10 µM (Flt4(h)): -8.37%
inhibition at 10 µM (ALK2(h)): 5.05%
inhibition at 10 µM (VRK1(h)): -1.15%
inhibition at 10 µM (CDK9/cyclin T1(h)): -1.35%
inhibition at 10 µM (TAO2(h)): 2.21%
inhibition at 10 µM (Pim-2(h)): -2.68%
inhibition at 10 µM (CDK4/cyclinD3(h)): 0.72%
inhibition at 10 µM (PDK1(h)): 9.31%
inhibition at 10 µM (MEKK3(h)): 4.03%
inhibition at 10 µM (CaMKIgamma(h)): 10.9%
inhibition at 10 µM (Fes(h)): 1.46%
inhibition at 10 µM (PKG1beta(h)): 3.46%
inhibition at 10 µM (Bradykinin B2): -7%
remaining activity at 1 µM (USP8): 93%
remaining activity at 10 µM (USP8): 109%
remaining activity at 1 µM (AMSH-LP): 105%
remaining activity at 10 µM (AMSH-LP): 88%
inhibition at 10 µM (TrkC(h)): 4.31%
inhibition at 10 µM (NEK3(h)): 9.85%
inhibition at 10 µM (CDK2/cyclinA(h)): -15.3%
inhibition at 10 µM (SAPK2b(h)): -6.41%
inhibition at 10 µM (SIK2(h)): 1.8%
effect on the activity of any tested DUB target [2]: did not show a significant effect
remaining activity at 1 µM (UCHL5): 100%
remaining activity at 10 µM (UCHL5): 147%
inhibition at 10 µM (ALK4(h)): 3.46%
inhibition at 10 µM (GRK6(h)): 6.11%
inhibition at 10 µM (DYRK1B(h)): -3.27%
inhibition at 10 µM (EphA2(h)): -2.44%
remaining activity at 1 µM (OTUD1): 101%
remaining activity at 10 µM (OTUD1): 104%
inhibition at 10 µM (PDGFRalpha(h)): 29.9%
inhibition at 10 µM (GSK3alpha(h)): -3.55%
inhibition at 10 µM (Fgr(h)): 10.9%
inhibition at 10 µM (PKCgamma(h)): -2.02%
inhibition across various DUBs [3]: < 15%

CC(C)C[C@@H](NC(=O)C1(C(F)(F)F)CCCCC1)C(=O)Nc1nnc(Cc2ccc(C#N)cc2)s1 [Compound 21, N-[(1R)-1-[[5-[(4-Cyanophenyl)methyl]-1,3,4-thiadiazol-2-yl]carbamoyl]-3-methyl-butyl]-1-(trifluoromethyl)cyclohexanecarboxamide]
inhibition at 10 µM (PRK2(h)): 4.47%
inhibition at 10 µM (TTBK2(h)): -10.1%
% Inh. (Lipoxygenase 15-LO): -3%
inhibition at 10 µM (JAK3(h)): 4.23%
inhibition at 10 µM (Mnk2(h)): 10.1%
inhibition at 10 µM (MLK1(h)): 1.96%
pIC50 (six cysteine proteases): < 4.70
inhibition at 10 µM (Rse(h)): 13.7%
remaining activity at 1 µM (USP9X): 97%
remaining activity at 10 µM (USP9X): 108%
inhibition at 10 µM [1]: 20%
inhibition at 10 µM (Flt4(h)): -10.5%
inhibition at 10 µM (ALK2(h)): 4.53%
inhibition at 10 µM (VRK1(h)): 3.92%
inhibition at 10 µM (CDK9/cyclin T1(h)): -4.38%
inhibition at 10 µM (TAO2(h)): -3.58%
inhibition at 10 µM (Pim-2(h)): 5.57%
inhibition at 10 µM (CDK4/cyclinD3(h)): 3.86%
inhibition at 10 µM (PDK1(h)): 11.4%
inhibition at 10 µM (MEKK3(h)): 1.98%
inhibition at 10 µM (CaMKIgamma(h)): 10.5%
inhibition at 10 µM (Fes(h)): 8.18%
inhibition at 10 µM (PKG1beta(h)): 0.39%
inhibition at 10 µM (Bradykinin B2): -7%
remaining activity at 1 µM (USP8): 94%
remaining activity at 10 µM (USP8): 96%
remaining activity at 1 µM (AMSH-LP): 96%
remaining activity at 10 µM (AMSH-LP): 101%
inhibition at 10 µM (TrkC(h)): 9.76%
inhibition at 10 µM (NEK3(h)): 14.3%
inhibition at 10 µM (CDK2/cyclinA(h)): -20.1%
inhibition at 10 µM (SAPK2b(h)): 8.08%
inhibition at 10 µM (SIK2(h)): 7.78%
inhibition for seven other DUBs of the panel [2]: less than 50%
remaining activity at 1 µM (UCHL5): 108%
remaining activity at 10 µM (UCHL5): 98%
inhibition at 10 µM (ALK4(h)): 3.05%
inhibition at 10 µM (GRK6(h)): 4.94%
inhibition at 10 µM (DYRK1B(h)): 2.8%
inhibition at 10 µM (EphA2(h)): 7.27%
remaining activity at 1 µM (OTUD1): 102%
remaining activity at 10 µM (OTUD1): 99%
inhibition at 10 µM (PDGFRalpha(h)): 16.5%
inhibition at 10 µM (GSK3alpha(h)): 11%
inhibition at 10 µM (Fgr(h)): -3.78%
inhibition at 10 µM (PKCgamma(h)): -0.1%
inhibition across various DUBs [3]: < 15%
